{"source": "paper doi:10.1101/2021.01.05.425432v2", "about": "(biorxiv, 2021)", "biological_target": "jack bean urease (JBU) (Canavalia ensiformis, UniProt P07374)", "experiment": "tandem-well NH3 assay, salicylic acid-hypochlorite", "assay_type": "biochemical", "conditions": "25 mM urea, 100 μM NiCl2, 50 mM phosphate pH 7.4, 37 °C, 30 min preincubation", "data": [{"smiles": "O=C1c2ccccc2C(=O)N1c1ccccc1", "values": [{"measurement": "IC50", "result": "> 10", "unit": "µM"}]}, {"smiles": "O=c1c2ccccc2sn1-c1ccccc1", "values": [{"measurement": "IC50", "result": 1, "unit": "µM"}]}]}
